Results reported in paper PMC7351598.

Molecular target: NT-647-NHS-labeled AcrIIA1 (Listeria phage)
Assay: MST

Substance: SpyCas9 (QB3 Macrolab) (from UniProt Q99ZW2 1-1368) (enzyme)
- pKd: 7.74

pKd: −log10 of the molar value.
